Assay results as given in patent publication US9260484B2, “Small molecule composite surfaces as inhibitors of protein-protein interactions” (Ohio State Innovation Foundation, priority 2011, dated 2016).

Protein sequences, listed by entry. Tags and fused reporters are not part of them.
UniProt P62942, whole entry: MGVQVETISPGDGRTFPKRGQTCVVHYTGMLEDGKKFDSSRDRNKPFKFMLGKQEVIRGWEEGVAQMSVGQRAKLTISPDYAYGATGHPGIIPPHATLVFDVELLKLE

Molecular target: T1, FKBP (Homo sapiens, UniProt P62942)
T1 construct: 200 nM recombinant FKBP
Experiment: fluorescence polarization (FA) competition assay for binding to FKBP
Protocol: To facilitate solid-phase synthesis, an invariant glutamine was added to the C-terminal side of the R^1 residue, for the purpose of backbone peptide cyclization and providing an anchor for attachment to the solid support. For this set of compounds, the dipeptide Ala-Ala was used as the effector domain. The rapalogs were tested for binding to FKBP by a fluorescence polarization competition assay^22,23. SLF^24, was labeled with the fluorescent dye fluorescein^23. Binding of the labeled ligand to FKBP increases its fluorescence anisotropy (FA) values. Addition of an unlabeled ligand to the reaction inhibits the binding of SLF to FKBP and therefore decreases the FA values. […] Subsequently, the IC50 values were converted into KI values based on the Cheng-Prusoff equation.
A previously reported synthetic ligand of FKBP^46 (SLF in FIG. 2), was labeled with the fluorescent dye fluorescein^20. Binding of the labeled ligand to FKBP increases its fluorescence anisotropy (FA) value.
The fluorescence polarization based competition assay was performed in a 384-well plate. […] After the addition of the rapalogs as the last component, the binding reactions were incubated for 1 h at room temperature to reach binding equilibrium. Anisotropy values were measured on a FlexStation 3 plate reader (Molecular Devices, Sunnyvale, Calif.).

`C[C@@H]1NC(=O)[C@H](C)NC(=O)[C@H](C)NC(=O)[C@H](CCC(N)=O)NC(=O)C[C@@H](CCc2ccccc2)NC(=O)[C@@H]2CCCCN2C(=O)C(=O)C(C)(C)COC(=O)[C@@H](C)NC(=O)[C@H](C)NC1=O` [Compound 2x] showed a Ki of 0.15 ± 0.03 µM.
